These results are taken from ChEMBL document CHEMBL1129067, “Dioxabicyclooctanyl naphthalenenitriles as nonredox 5-lipoxygenase inhibitors: structure-activity relationship study directed toward the improvement of metabolic stability” (J Med Chem, 1996).

A word on the IC50: it is the concentration that inhibits the measured activity by half.

This test concerns the target T1, Polyunsaturated fatty acid 5-lipoxygenase (Homo sapiens, UniProt P09917).
T1 sequence (P09917 whole entry): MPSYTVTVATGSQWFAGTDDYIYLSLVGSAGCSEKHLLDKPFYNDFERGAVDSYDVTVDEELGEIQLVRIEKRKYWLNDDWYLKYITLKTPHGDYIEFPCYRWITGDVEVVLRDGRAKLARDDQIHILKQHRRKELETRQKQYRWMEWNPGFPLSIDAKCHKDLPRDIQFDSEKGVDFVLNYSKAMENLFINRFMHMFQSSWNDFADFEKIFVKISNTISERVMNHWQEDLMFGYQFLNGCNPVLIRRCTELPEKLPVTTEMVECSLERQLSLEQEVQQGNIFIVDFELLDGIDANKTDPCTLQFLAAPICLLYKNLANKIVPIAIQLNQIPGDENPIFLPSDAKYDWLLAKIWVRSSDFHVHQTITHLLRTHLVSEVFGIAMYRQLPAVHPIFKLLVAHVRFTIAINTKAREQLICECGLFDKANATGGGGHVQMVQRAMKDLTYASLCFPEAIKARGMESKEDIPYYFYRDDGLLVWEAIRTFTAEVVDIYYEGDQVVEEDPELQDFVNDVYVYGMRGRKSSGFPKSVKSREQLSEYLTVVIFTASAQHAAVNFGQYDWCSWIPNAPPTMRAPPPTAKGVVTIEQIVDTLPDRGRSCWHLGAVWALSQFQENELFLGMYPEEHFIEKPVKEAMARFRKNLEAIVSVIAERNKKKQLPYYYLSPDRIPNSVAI
Briefly: Potency to inhibit oxidation of arachidonic acid by recombinant human 5-lipoxygenase.

Turning to `O=C1OCc2c1cc1cc(OCc3cccc(C4(O)CCOCC4)c3)ccc1c2-c1ccccc1`, the IC50 stood at 115 nM.
